Test results reported in US6319955A, “Use of MEK1 inhibitors as protective agents against damage due to ischemia” (priority 2000, dated 2001).
Where two headings read alike, the source gives them in different places.

Test system: focal cerebral ischemia

## COc1cccc(-c2cc(=O)c3ccccc3o2)c1N [PD98059, 2-(2-amino-3-methoxyphenyl)-4-oxo-4H-[1]benzopyran]
50 μM i.c.v. pretreatment, P<0.05
  decrease in total damage: 23%
100 μM i.c.v. pretreatment, P<0.05
  decrease in total damage: 42%
200 μM i.c.v. pretreatment, 22 hours following ischemic insult, P<0.01
  decrease in total damage: 55%
200 μM i.c.v. pretreatment, three days post-ischemia, P<0.05
  decrease in total damage: 43%
2 hours MCAO
  protective when injected i.c.v. as pretreatment versus during ischemia: only pretreatment with intraventricular administration of PD98059, but not injection during ischemia, is protective
